Values quoted from earlier work in patent US20190309053A1, “PROLONGATION OF SURVIVAL OF AN ALLOGRAFT BY INHIBITING COMPLEMENT ACTIVITY” (Alexion Pharmaceuticals, Inc., priority 2004, published 2019).

Test system: terminal complement activity
Conditions: cited from earlier work
[1] = PNH patients, 900 mg/patient once every 12-14 days

eculizumab: whole anti-C5 monoclonal antibody specific to human complement C5
duration for which the administered dose blocks the effects of complement (900 mg dose): approximately two weeks | symptoms of PNH [1]: greatly inhibited | terminal complement activity [1]: completely and consistently block | ill effects (intravenous administration to humans in a study of PNH): without ill effects
